Sequences of proteins named here, by UniProt entry; tags and fusion partners are left off.
UniProt P08684, whole entry, looked up: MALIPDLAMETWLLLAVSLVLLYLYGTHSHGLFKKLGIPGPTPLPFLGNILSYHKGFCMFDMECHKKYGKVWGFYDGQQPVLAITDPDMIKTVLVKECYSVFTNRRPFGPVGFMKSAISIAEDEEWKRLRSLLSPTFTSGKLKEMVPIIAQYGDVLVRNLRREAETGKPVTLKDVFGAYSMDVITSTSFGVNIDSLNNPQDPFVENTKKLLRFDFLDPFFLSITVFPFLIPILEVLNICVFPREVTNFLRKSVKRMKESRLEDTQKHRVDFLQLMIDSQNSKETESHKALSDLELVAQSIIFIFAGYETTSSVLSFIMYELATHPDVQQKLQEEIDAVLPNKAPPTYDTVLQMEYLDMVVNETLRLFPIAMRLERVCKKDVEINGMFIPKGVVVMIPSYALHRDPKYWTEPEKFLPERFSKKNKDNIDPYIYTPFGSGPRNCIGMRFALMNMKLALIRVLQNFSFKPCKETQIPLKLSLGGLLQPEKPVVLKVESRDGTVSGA
UniProt P10635, whole entry, looked up: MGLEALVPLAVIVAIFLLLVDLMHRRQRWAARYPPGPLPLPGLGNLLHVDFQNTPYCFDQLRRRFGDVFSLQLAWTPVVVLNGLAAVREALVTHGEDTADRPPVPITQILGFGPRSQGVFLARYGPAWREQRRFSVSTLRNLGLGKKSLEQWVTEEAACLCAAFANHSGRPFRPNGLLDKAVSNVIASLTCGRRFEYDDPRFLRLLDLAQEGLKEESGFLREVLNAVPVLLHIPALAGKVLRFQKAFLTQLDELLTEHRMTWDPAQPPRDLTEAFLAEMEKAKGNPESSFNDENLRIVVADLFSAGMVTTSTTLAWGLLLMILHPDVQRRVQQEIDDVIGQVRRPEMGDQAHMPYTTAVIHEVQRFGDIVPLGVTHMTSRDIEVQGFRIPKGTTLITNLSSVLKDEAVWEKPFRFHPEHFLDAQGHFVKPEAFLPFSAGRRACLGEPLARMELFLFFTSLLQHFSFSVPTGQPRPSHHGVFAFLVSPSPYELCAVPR
UniProt P11712, whole entry, looked up: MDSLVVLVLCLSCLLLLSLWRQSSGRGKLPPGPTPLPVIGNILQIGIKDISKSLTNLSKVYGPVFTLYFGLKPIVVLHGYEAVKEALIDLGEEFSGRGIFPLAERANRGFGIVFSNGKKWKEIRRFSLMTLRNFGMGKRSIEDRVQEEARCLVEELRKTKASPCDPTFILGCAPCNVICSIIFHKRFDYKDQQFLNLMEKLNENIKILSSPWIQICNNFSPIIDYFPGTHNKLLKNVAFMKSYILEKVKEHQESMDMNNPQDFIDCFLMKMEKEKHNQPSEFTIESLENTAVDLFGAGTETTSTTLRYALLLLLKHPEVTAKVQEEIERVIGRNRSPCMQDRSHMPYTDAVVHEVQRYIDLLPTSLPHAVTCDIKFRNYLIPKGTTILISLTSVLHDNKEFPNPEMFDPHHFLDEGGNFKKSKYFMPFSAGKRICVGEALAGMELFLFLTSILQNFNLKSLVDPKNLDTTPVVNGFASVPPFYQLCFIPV

According to ChEMBL document CHEMBL3627709, “Discovery of a Novel, Potent Spirocyclic Series of γ-Secretase Inhibitors” (J Med Chem, 2015):

Assays:
[1] = target: T1, Cytochrome P450 3A4 (Homo sapiens, UniProt P08684); experiment: Inhibition of CYP3A4 (unknown origin) co-incubated with substrate and protein; assay type: ADME
[2] = target: T1, Cytochrome P450 3A4
[3] = target: T2, Cytochrome P450 2D6 (Homo sapiens, UniProt P10635); experiment: Inhibition of CYP2D6 (unknown origin) co-incubated with substrate and protein; assay type: ADME
[4] = target: T2, Cytochrome P450 2D6
[5] = target: T3, Cytochrome P450 2C9 (Homo sapiens, UniProt P11712); experiment: Inhibition of CYP2C9 (unknown origin) co-incubated with substrate and protein; assay type: ADME
[6] = target: T3, Cytochrome P450 2C9

Measured: IC50

CP1(=O)OCC[C@]2(CCC[C@@]3(S(=O)(=O)c4ccc(Cl)cc4)c4c(F)ccc(F)c4OC[C@@H]23)CO1 (some centres not stated)
> 20 µM: all assays above

CP1(=O)OCC2(CCC[C@@]3(S(=O)(=O)c4ccc(Cl)cc4)c4c(F)ccc(F)c4OC[C@@H]23)CO1 (some centres not stated)
> 20 µM: all assays above
